Species on record: Cavia porcellus
Test: Selectivity as ratio of IC50 for mu and kappa opioid receptors

Selectivity: 10
SMILES: CC[C@H](C)[C@H](NC(=O)[C@H](CCCN=C(N)N)NC(=O)[C@H](CCCN=C(N)N)NC[C@H](CCCCN)NC(=O)[C@H](Cc1ccccc1)NC(=O)CNC(=O)CNC(=O)[C@@H](N)Cc1ccc(O)cc1)C(=O)N[C@@H](CCCN=C(N)N)C(=O)N1CCC[C@H]1C(=O)N[C@@H](CCCCN)C(N)=O

Reference: ChEMBL document CHEMBL1128535, “Synthesis using a Fmoc-based strategy and biological activities of some reduced peptide bond pseudopeptide analogues of dynorphin A1” (J Med Chem, 1995)
